Data taken from patent US20230248642A1, “INJECTABLE HIGH-DRUG-LOADED NANOCOMPOSITE GELS AND PROCESS FOR MAKING THE SAME” (NUECOLOGY BIOMEDICAL INC., priority 2020, published 2023).

Test system: SKBR-3-derived tumor
Assay: In-vivo study of trastuzumab gel on SKBR3-derived breast tumor
Conditions: SC injection, BALB/c Nude mice with SKBR3 tumor
Text: The injectable nanocomposite gel carrying biosimilar drug, i.e., trastuzumab, with different dosing concentration designed based on clinical data per dosing, for a subsequent animal study. The breast tumor was cultivated by injection 1×10^7 SKBR3 cells to the right flank region of the mice, and the controls are given below: • Objects: Seven-week-old BALB/c Nude mice (Female) • Quantity: 5 groups, 4 mice for each group, totally 20. • Drugs: (1) PBS; (2) free-trastuzumab; (3) 1× trastuzumab gel; (4) 2× trastuzumab gel; (5) • 3× trastuzumab gel (for 3-week dose at one injection) • Dose: 25 mg/kg and 50 mg/kg, and 75 mg/kg, one SC injection per week • Injection frequency: Three doses on 2 weeks (Subcutaneous injection) • Injection Volume: 100 ul/20 g • Observation: Weight the mice and measure the tumor size twice a week. • Test period: 2-3 weeks, depending on size change of the breast tumor • Injection site: subcutaneous site on the left flank region of the mice • After continue monitoring on the size change of the tumor for on a weekly base, we found the growth of the tumor for the control group (PBS) is significant in the first week, from ˜100 mm^3 to nearly 1000 mm^3, and for free trastuzumab injection, from ˜100 mm^3 to 813 mm^3, and for 1× trastuzumab gel, from ˜100 mm^3 to 543 mm^3, and for 2× trastuzumab gel, from ˜100 mm^3 to nearly 410 mm^3. […]

Q: What does the source list for trastuzumab [free trastuzumab]?
A: tumor size (first week, starting from ~100 mm^3): 813 mm^3; tumor size (second week): ~1500 mm^3
